The record followed here is CN117396506A (NOVARTIS AG, dated 2024).

One test concerns the target T1, 重组人IL-1β (human, UniProt P01584 117-269).
T1 construct: In the LPS/IL-12 assays the IL-1β is the native cytokine made by the blood cells; also called huIL-1β; IL-1b
In words: solution equilibrium titration (SET), single-target binding assay, MSD ECL read-out; mean KD.

The next test deals with T2, 重组人IL-18 (human, UniProt Q14116 37-193).
T2 construct: In the LPS/IL-12 assays the IL-18 is the native cytokine made by the blood cells; also called huIL-18; human IL-18
Description: SET, simultaneous target binding assays A (one target in excess, 500 pM) and B (mixture of both targets in serial dilution).

B1: bbmAb1 (bispecific antibody, human IgG1, kappa, lambda, L234A L235A)
heavy 1: not shown
light 1: not shown
heavy 2: not shown
light 2: EIVLTQSPDFQSVTPKEKVTITCRASQSIGSSLHWYQQKPDQSPKLLIKYASQSFSGVPSRFSGSGSGTDFTLTINSLEAEDAAAYYCHQSSSLPFTFGPGTKVDIKRTVAAPSVFIFPPSDEQLKSGTASVVCLLNNFYPREAKVQWKVDNALQSGNSQESVTEQDSKDSTYSLSSTLTLSKADYEKHKVYACEVTHQGLSSPVTKSFNRGEC
For B1, the dissociation constant (Kd) with 重组人IL-1β is 2.6 pM. For the same molecule, the binding result in the test with 重组人IL-18 is recorded as “binds”.

The term Kd denotes a measure of binding affinity in units of concentration.
